Data as given in US20130060020A1, “Compounds useful for treating neurodegenerative disorders” (Satori Pharmaceuticals, Inc., priority 2011, published 2013).

Legend:
[1] = tested on: Aβ-38; test: Aβ-38 MSD 3-plex ELISA, conditioned media of 2B7 cells; type: cell-based; details: Homo sapiens, 5 h
Method: (§1) Assays were conducted to determine the ability of a Compound of Formula I to modulate […], and Aβ-38.
(§2) Plates with capture antibodies were blocked for 1-2 hours at room temperature with 150 μL of the manufactures blocking reagent.
(§3) Cultured 2B7 cells in 96 well plate with 250 μL of media per well until confluent;
(§4) Prepared serial dilutions of compounds in DMSO at 100× the final desired concentration;
(§5) Washed wells with 2B7 cells 1× with 250 μL of media;
(§6) Diluted DMSO stocks 1:100 into media: • Added 250 μL of media containing compounds (1% DMSO) to wells with 2B7 cells for 5 hours at 37° C.
(§7) ELISA Sample Prep: • Diluted conditioned media: 1 part media with 1% DMSO and 1 part blocking buffer; • 150 μL of the 250 μL of conditioned media were used.
(§8) Prepared per manufacturer's protocol (see above). • Seven point standard curve samples were prepared that contained Aβ-42, Aβ-40, and Aβ-38. The highest concentration of Aβ-42 and Aβ-38 was 3,000 pg/mL and the highest concentration of Aβ-40 was 10,000 pg/mL. Subsequent serial dilutions were 1:3 and the final composition of each sample was 1 part blocking buffer and 1 part cell medium containing 1% DMSO.
(§9) Overnight Sample Incubation: • Blocked plates are washed 5× with MSD wash buffer with a plate washer; • […] and blocker G reagent in MSD blocking solution was added; • 25 μL of samples (1 part conditioned media containing 1% DMSO and 1 part MSD blocking buffer) were then added; • Plates were incubated overnight at 4 degrees C. or 2 hours at room temperature.
(§10) Final Wash and Readout: • Washed wells 5× with MSD wash buffer; • Added 150 μL 2×MSD read buffer; • Read with MSD imager.
(§11) Aβ peptide levels for each peptide were calculated from the standard curve using the MSD software provided with the MSD 2400 Imager. Percent vehicle values for each compound dosage were then calculated and fit to a 4 parameter curve generating IC50 values.
(§12) Conditioned media from 2B7 cells (Mayo) was collected after 5 hours of treatment and diluted with 1 volume of Meso Scale Discovery (MSD, Gaithersburg Md.) blocking buffer (1% BSA in MSD wash buffer). For total Aβ measurements, standard-bind, multi-array single spot 96 well MSD ELISA plates were coated with unlabeled 4G8 capture antibody (Covance, Princeton, N.J.) overnight at 4° C. and then blocked with 5% BSA in MSD wash buffer for 1 hour at room temperature with orbital shaking Diluted 2B7 conditioned media were added to the blocked in-house total Aβ MSD plates with SULFO-TAG 6E10 antibody (MSD). For Aβ38, 40 and 42 measurements, diluted 2B7 conditioned media were added to blocked human (6E10) Aβ 3-Plex plates (MSD). Total Aβ and Aβ 3-Plex plates were incubated for 2 hours at room temperature with orbital shaking followed by washing and reading according to the manufacturer's instructions (SECTOR® Imager 2400, MSD). Aβ concentrations were converted to percent vehicle values and used to construct dose response curves which were fitted to […] using GraphPad Prism version 5.00 for Windows, GraphPad Software, San Diego Calif. USA.

[2] = tested on: Aβ-40; test: Aβ-40 MSD 3-plex ELISA, conditioned media of 2B7 cells; type: cell-based; details: Homo sapiens, 5 h
Method: as §1, §2, §3, §4, §5, §6, §7, §8, §9, §10, §11, §12

[3] = tested on: Aβ-42; test: Aβ-42 MSD 3-plex ELISA, conditioned media of 2B7 cells; type: cell-based; details: Homo sapiens, 5 h
Method: as §1, §2, §3, §4, §5, §6, §7, §8, §9, §10, §11, §12

[4] = tested on: Notch processing (NICD); test: Notch assay: NICD appearance in SUP-T1 cells (western blot); type: cell-based; details: Homo sapiens, SUP-T1, 18 h, read-out: Notch IC50
Method: The methods for this assay are broken up into two parts. 1) Growing, dosing and lysing cells 2) Measuring Notch processing (NICD appearance) and data manipulation. Cell viability is also described (CTG). SUP-T1 cells were cultured in T75 flasks in RPMI media (Mediatech 10-041-CV) supplemented with 10% FBS and penicillin/streptomycin at 37° C. in a 5% CO2 atmosphere. One hour prior to drug treatment six well plates were seeded with 1.5 mL of media with cells at a density of 1.0×10^6 cells/mL. The DMSO serial dilutions were diluted 100 fold directly into the media with the cells and incubated for 18 hours at 37° C. After treatment 100 μL of treated cells were assayed for viability with the Promega Cell Titer Glo assay system. The remaining cells were washed 2× in PBS and then lysed with 1× promega reporter lysis buffer (E397A) containing a complete protease inhibitor cocktail (Roche 04 693 116 011) for 1 hour at 4° C. Lysates were spun at 5,000 RPM for 5 minutes and supernatants were collected and analyzed for NICD levels. Total protein levels of the cell lysates were measured and adjusted to 0.5 ug/uL using Thermo Scientific's BCA assay (23221/23224) with a BSA standard curve. Lysates were then diluted with one part of gel loading buffer (BioRad 161-0739) with BME (BioRad 161-0739) and separated on 4-20% poly-acrylamide tris/glycine gels (BioRad 345-0065) for 1 hour at 200V. The gels were then equilibrated in transfer buffer (20% Methanol in Tris-glycine buffer, BioRad 161-0734) and transferred to 0.45 micron nitrocellulose (Whatman 10 401196) for 45 minutes at 100V in a tank transfer system. […] The membranes were then washed and probed with a HRP tagged anti rabbit secondary (1:20,000 dilution, Rockland 811-1322) in 5% milk in TBS-T for an hour at room temperature. […] To account for loading discrepancies each NICD band was normalized to the alpha tubulin band in that well. These values were then normalized to vehicle levels and used to plot a dose response curve. IC50 values were obtained from the dose response curves using a four parameter fit method available within Prism's GraphPad graphing suite. Luminescent data from Promega's Cell Titre Glo assay system were normalized to vehicle controls and plotted with NICD levels.

[5] = tested on: Aβ 42; test: % 42 lowering and 40/42 selectivity after dosing in mg/kg (Table 5); type: in vivo
[6] = read-out: Aβ 42 DR IC50 Inflection
[7] = read-out: Aβ 40 DR IC50 Inflection
[8] = read-out: Aβ 38 DR IC50 Inflection

SMILES | IC50 ([1]; read-out: Aβ 38 IC50) [nM] | IC50 ([2]; read-out: Aβ 40 IC50) [nM] | IC50 [3, 6] [nM] | IC50 ([3]; read-out: Aβ 42 IC50) [nM] | IC50 [4] [nM] | IC50 [2, 7] [nM] | IC50 [1, 8] [nM] | 40/42 selective 10 hr ([5]; 100 mg/kg) | 40/42 selective 10 hr ([5]; 150 mg/kg)
CCO[C@@H]([C@H]1C[C@@H](C)[C@H]2[C@H](O1)[C@H](O)[C@@]1(C)[C@@H]3CC[C@H]4C(C)(C)[C@@H](O[C@H]5CN(CC6CN(CCO)C6)CCO5)CC[C@@]45C[C@@]35CC[C@]21C)C(C)(C)O [Compound I-38] | 100 to 500 | 1000 to 5000 | 100 to 500 | 100 to 500 | – | – | – | – | –
CCO[C@@H]([C@H]1C[C@@H](C)[C@H]2[C@H](O1)[C@H](O)[C@@]1(C)[C@@H]3CC[C@H]4C(C)(C)[C@@H](O[C@H]5CN(C6CN(C)C6)CCO5)CC[C@@]45C[C@@]35CC[C@]21C)C(C)(C)O [Compound I-3] | 100 to 500 | 1000 to 5000 | 100 to 500 | < 100 | > 5000 | 1000 to 5000 | – | – | –
CCO[C@@H]([C@H]1C[C@@H](C)[C@H]2[C@H](O1)[C@H](O)[C@@]1(C)[C@@H]3CC[C@H]4C(C)(C)[C@@H](O[C@H]5CN(C6CN(C(C)C)C6)CCO5)CC[C@@]45C[C@@]35CC[C@]21C)C(C)(C)O [Compound I-6] | 100 to 500 | 1000 to 5000 | < 100 | 100 to 500 | > 5000 | 1000 to 5000 | – | – | –
CCO[C@@H]([C@H]1C[C@@H](C)[C@H]2[C@H](O1)[C@H](O)[C@@]1(C)[C@@H]3CC[C@H]4C(C)(C)[C@@H](O[C@H]5CN(CC6CN(C7COC7)C6)CCO5)CC[C@@]45C[C@@]35CC[C@]21C)C(C)(C)O [Compound I-19] | 501 to 1000 | 1000 to 5000 | 100 to 500 | 100 to 500 | – | 1000 to 5000 | 100 to 500 | – | –
CCO[C@@H]([C@H]1C[C@@H](C)[C@H]2[C@H](O1)[C@H](O)[C@@]1(C)[C@@H]3CC[C@H]4C(C)(C)[C@@H](O[C@H]5CN(CC6CN(CC(C)(C)O)C6)CCO5)CC[C@@]45C[C@@]35CC[C@]21C)C(C)(C)O [Compound I-24] | 100 to 500 | 501 to 1000 | 100 to 500 | 100 to 500 | > 5000 | – | – | – | –
CCO[C@@H]([C@H]1C[C@@H](C)[C@H]2[C@H](O1)[C@H](O)[C@@]1(C)[C@@H]3CC[C@H]4C(C)(C)[C@@H](O[C@H]5CN(C6CN(CCO)C6)CCO5)CC[C@@]45C[C@@]35CC[C@]21C)C(C)(C)O [Compound I-40] | 100 to 500 | 1000 to 5000 | < 100 | < 100 | – | – | – | – | –
CCO[C@@H]([C@H]1C[C@@H](C)[C@H]2[C@H](O1)[C@H](O)[C@@]1(C)[C@@H]3CC[C@H]4C(C)(C)[C@@H](O[C@H]5CN(C6CN(CC(C)(C)O)C6)CCO5)CC[C@@]45C[C@@]35CC[C@]21C)C(C)(C)O [Compound I-25] | 501 to 1000 | 1000 to 5000 | < 100 | 100 to 500 | – | 1000 to 5000 | – | – | –
CCO[C@@H]([C@H]1C[C@@H](C)[C@H]2[C@H](O1)[C@H](O)[C@@]1(C)[C@@H]3CC[C@H]4C(C)(C)[C@@H](O[C@H]5CN(CC6CN(CCOC)C6)CCO5)CC[C@@]45C[C@@]35CC[C@]21C)C(C)(C)O [Compound I-20] | 100 to 500 | 1000 to 5000 | < 100 | < 100 | – | 1000 to 5000 | < 100 | G^a (16-20 fold selectivity) | –
CCO[C@@H]([C@H]1C[C@@H](C)[C@H]2[C@H](O1)[C@H](O)[C@@]1(C)[C@@H]3CC[C@H]4C(C)(C)[C@@H](O[C@H]5CN(C6CN(C7CCC7)C6)CCO5)CC[C@@]45C[C@@]35CC[C@]21C)C(C)(C)O [Compound I-13] | 100 to 500 | 1000 to 5000 | 100 to 500 | 100 to 500 | > 5000 | – | – | – | –
CCO[C@@H]([C@H]1C[C@@H](C)[C@H]2[C@H](O1)[C@H](O)[C@@]1(C)[C@@H]3CC[C@H]4C(C)(C)[C@@H](O[C@H]5CN(C6CN(CCOC)C6)CCO5)CC[C@@]45C[C@@]35CC[C@]21C)C(C)(C)O [Compound I-17] | 100 to 500 | 1000 to 5000 | < 100 | < 100 | – | 1000 to 5000 | – | – | –
CCO[C@@H]([C@H]1C[C@@H](C)[C@H]2[C@H](O1)[C@H](O)[C@@]1(C)[C@@H]3CC[C@H]4C(C)(C)[C@@H](O[C@H]5CN(CC6CN(C(C)C)C6)CCO5)CC[C@@]45C[C@@]35CC[C@]21C)C(C)(C)O [Compound I-22] | 100 to 500 | 1000 to 5000 | 100 to 500 | 100 to 500 | – | – | – | – | –
CCO[C@@H]([C@H]1C[C@@H](C)[C@H]2[C@H](O1)[C@H](O)[C@@]1(C)[C@@H]3CC[C@H]4C(C)(C)[C@@H](O[C@H]5CN(C6CN(C7COC7)C6)CCO5)CC[C@@]45C[C@@]35CC[C@]21C)C(C)(C)O [Compound I-11] | 100 to 500 | – | < 100 | 100 to 500 | – | – | – | – | –
[2H]C1(N2CCO[C@@H](O[C@H]3CC[C@]45C[C@]46CC[C@]4(C)[C@@H]7[C@H](O[C@@H]([C@H](OCC)C(C)(C)O)C[C@H]7C)[C@H](O)[C@@]4(C)[C@@H]6CC[C@H]5C3(C)C)C2)CN(C)C1 [Compound I-10] | 501 to 1000 | 1000 to 5000 | < 100 | 100 to 500 | – | 1000 to 5000 | – | – | –
CCO[C@@H]([C@H]1C[C@@H](C)[C@H]2[C@H](O1)[C@H](O)[C@@]1(C)[C@@H]3CC[C@H]4C(C)(C)[C@@H](O[C@H]5CN(CC6CN(C)C6)CCO5)CC[C@@]45C[C@@]35CC[C@]21C)C(C)(C)O [Compound I-5] | 501 to 1000 | 1000 to 5000 | 100 to 500 | 100 to 500 | > 5000 | 1000 to 5000 | – | – | F (10-15 fold selectivity)

Read-outs that look alike come from different tables or passages of the source.
